# From US20040077031
# Legend:
# [1] = test system: MGAQFSKT (MARCKS protein) octameric peptide
# [2] = test system: MAS (methionine-alanine-serine) trimeric peptide
substance,measurement,setting,value
recombinant human methionine aminopeptidase type 1 (MetAP1) with N-terminal histidine tag,"baseline activity (turnover, no added metal)",[1],0.51 µM/min turnover at 500 nM MetAP1
same,"baseline activity (turnover, no added metal)",[2],1.68 µM/min turnover at 120 nM MetAP1
same,baseline activity on MAS relative to MGAQFSKT,[2],14-fold higher baseline activity
